The experiment relates to HEK293. In words: Inhibition of mouse derived homozygous Tg0N4R P301S mutant tau-induced human ON4R tau aggregation harboring P301S mutant transfected in HEK293 cells preincubated for 2 hrs followed by compound addition and measured after 3 hrs by YFP-based fluorescence assay.

Here are results for three molecules from ChEMBL document CHEMBL4334547 (ACS Med Chem Lett, 2020).

The structures appear in SMILES notation.

For `Cc1nc(CC(=O)N2CCN(c3cncc4ccccc34)CC2)co1`, the fEC50 was determined as 210 nM. Regarding `CC(=O)c1ccc2cncc(N3CCN(c4ccc5cnn(C)c5c4)CC3)c2c1`, the fEC50 was 5 nM.

`CN(C)C(=O)Cn1cc(-c2ccc(-c3cncc4ccccc34)cc2)cn1` displayed a fEC50 of 2 nM.
